The values below come from patent US20060134801A1, “Methods and compositions involving MDA-7” (Board of Regents, The University of Texas System, priority 2003, published 2006).

The test system of this experiment is MCF-7-Her-18 tumors. The experiment can be described thus: MCF-7-Her-18 mammary fat pad xenograft. Type of experiment: in vivo, nude mice. To be noted: vector 2×10^10 vp weekly ×3; Herceptin 110 μg i.p. twice weekly ×3. How it is done: The nude mice were obtained from Charles River Laboratories (Wilmington, Mass.). Estrogen pellets were injected in the posterior cervical region at a dose of 0.5 mg. Two days later, MCF-7-Her-18 cells were injected into the thoracic mammary fat pad at a density of 5×10^6 cells per mouse. […] The viral vectors were injected directly into the tumor at a dose of 2×10^10 viral particles once per week for three weeks. […] The tumor size was measured and recorded twice a week until sacrifice.

Regarding “Herceptin: monoclonal antibody that blocks the HER2-neu receptor”, the “time to tumor doubling” value was found to be 16 days.
